## Antibody variant affinities, Ab-14 heavy chain, assay B

The measurements come from Li et al. 2023 (doi:10.1038/s41467-023-39022-2) through the FLAb antibody collection.

Antigen: PDVDLGDISGINAS, a 14-residue peptide of the SARS-CoV-2 spike HR2 region.

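The parent was found by panning a naive human phage display library on the peptide. The variants were designed computationally from a first round of random CDR variants and then made and measured. Group labels follow the data file (Ctrl: baseline library sampled from a position-specific scoring matrix, with some repeated check sequences; Rand: our label for a block that the file lists under HC and that is probably the random mutants of the ten best first-round binders; En: ensemble of fine-tuned language models; GP: Gaussian process model; GPLM: also part of the Gaussian process libraries; HC: hill climbing; Gen: genetic algorithm; Gibbs: Gibbs sampling; a sequence that several methods proposed may carry one label only). AlphaSeq pools MATa yeast showing the antibodies with MATalpha yeast showing the peptide. Mating (16 h, 30 °C) was followed by selection of diploids and sequencing of their barcodes. Read counts were normalised to the haploid input and turned into Kd by a linear fit to BCL2-family pairs of known affinity, for each replicate. There are six technical replicates.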

Parent: Ab-14, a human scFv built as VH, three GGGGS repeats, VL. Only the CDRs of the heavy chain vary.
VH: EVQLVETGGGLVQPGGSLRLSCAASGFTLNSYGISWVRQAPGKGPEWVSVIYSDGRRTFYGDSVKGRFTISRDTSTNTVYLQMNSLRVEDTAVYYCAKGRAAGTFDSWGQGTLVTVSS
VL: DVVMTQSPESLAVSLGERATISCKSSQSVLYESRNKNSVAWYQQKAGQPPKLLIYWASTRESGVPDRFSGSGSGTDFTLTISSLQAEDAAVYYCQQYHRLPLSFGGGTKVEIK

Changes read parent residue, position, new residue, counted from the first residue of the VH shown. This list holds designs with at most six substitutions. Each Kd is an estimate from the mating assay, the geometric mean of the replicates in which the pair was seen; lower is stronger. An entry "nd" has no value in the source: the pair was not observed among the diploids in any replicate. This suggests poor binding but is not conclusive. The authors averaged sequences with at least three values out of six and counted those with two or fewer as poor binders. Nonspecific signal, from three strains lacking the peptide, appeared in 1% of pairings of all heavy chain designs, centred on 120 nM (5% of these signals below 7.0 nM); values are not corrected for it. The range of this assay differs from that of the first round, and the authors advise against merging the two. Of ten entries with the parent sequence, four were seen in most replicates (averages 2.2 nM to 240 nM), three in one and three in none, so single entries are noisy.

With T28W/D54F/R100G/A102K/G103D [Ctrl] the result was nd (0 of 6 replicates).
With T28F/S31D/R100N [GP_HC] the result was 23 nM (3 of 6 replicates).
With G26D/S31D/A102R/G103L/D106I/S107T [Rand] the result was nd (0 of 6 replicates).
With S31D/F59Q/G61I/T104E [Rand] the result was nd (0 of 6 replicates).
With T28E/S31Q/R56L/F59Q [Ctrl] the result was 14 nM (6 of 6 replicates).
With T28D/G61V/R100L/A101T [GP_Gibbs] the result was 1.6 nM (6 of 6 replicates).
With T28D/S63N/R100Q/A101T [GP_Gen] the result was 690 pM (6 of 6 replicates).
With F59A/G99E/R100S/S107Q [Ctrl] the result was nd (0 of 6 replicates).
With T28Q/G61K/R100Q [GPLM_Gen] the result was 31 nM (5 of 6 replicates).
With T28E/S63D/R100S/A101E [GP_Gibbs] the result was 1.1 nM (6 of 6 replicates).
With N30E/R100T/F105K/S107T [Ctrl] the result was 15 nM (5 of 6 replicates).
With T28D/R100M/G103Y/T104W/F105Y/D106N [Rand] the result was nd (0 of 6 replicates).
With T28S/S31Q/G61T [GPLM_HC] the result was 45 nM (6 of 6 replicates).
With T28N/G61V/R100E [GP_Gen] the result was 7.0 nM (6 of 6 replicates).
With T28K/N30Q/G99Q/D106P [Ctrl] the result was nd (0 of 6 replicates).
With T28E/S31E/A101S/S107T [GP_Gibbs] the result was 1.4 nM (6 of 6 replicates).
With T28D/F59A/A102H/T104N [Ctrl] the result was nd (0 of 6 replicates).
With S31Q/S35T/R56H/G61S/G103E/T104F [Rand] the result was nd (0 of 6 replicates).
With T28S/S31Y/S63A/R100K/A101T [GP_Gibbs] the result was 30 nM (6 of 6 replicates).
With N30E/S53A/S63K [GP_HC] the result was 12 nM (6 of 6 replicates).
With S31D/S53C/G103L/D106I [Rand] the result was nd (0 of 6 replicates).
With T28D/G61S/R100K/A101T [GP_Gen] the result was 980 pM (6 of 6 replicates).
With G99R/R100E/T104S/D106P/S107L [Ctrl] the result was nd (0 of 6 replicates).
With S31L/G61D/R100Q/A101T [GPLM_HC] the result was 6.8 nM (1 of 6 replicates).
With N30D/R100K/S107V [GP_HC] the result was 4.5 nM (6 of 6 replicates).
With R56V/G61A/R100S/T104R [Ctrl] the result was nd (0 of 6 replicates).
With T28A/S31E/G61K [GP_HC] the result was 1.8 nM (6 of 6 replicates).
With R56Y/F105G [Ctrl] the result was nd (0 of 6 replicates).
With T28N/G61A/R100W/A101V [GPLM_Gibbs] the result was 1.4 nM (6 of 6 replicates).
With T28N/S31E/S53A/G61A/R100E/S107A [En_HC] the result was 1.9 nM (6 of 6 replicates).
With T28S/G61A/R100K/A101V [GPLM_Gen] the result was 2.2 nM (6 of 6 replicates).
With R100K/A102T/G103Q [Ctrl] the result was nd (0 of 6 replicates).

For reference, 4 entries of the list once more:

| changes | group | apparent Kd | seen in |
|---|---|---|---|
| T28W/D54F/R100G/A102K/G103D | Ctrl | nd | 0/6 |
| T28S/S31Q/G61T | GPLM_HC | 45 nM | 6/6 |
| R56Y/F105G | Ctrl | nd | 0/6 |
| N30D/R100K/S107V | GP_HC | 4.5 nM | 6/6 |